Earlier results in US6858018B1.
Some compounds may have been tested in ways that are not shown here.

Details: humans; cited from earlier work

## CCC(=O)N(c1ccccc1)C1(COC)CCN(CCc2cccs2)CC1
  terminal half-life: 2.5 h
